{"source": "patent EP1705169A2", "about": "“Triphenylalkene derivatives and their use as selective estrogen receptor modulators” (priority 1999, dated 2001)", "test_system": "ovariectomized rats", "conditions": "5 mg/kg peroral daily, 4 weeks, ovariectomized rats (Sham 0.497 ± 0.103; Ovariectomized 0.099 ± 0.016)", "data": [{"smiles": "OCCOc1ccc(/C(=C(/CCCl)c2ccccc2)c2ccccc2)cc1", "note": "[FC-1271a, 2-[4-(4-chloro-1,2-diphenyl-but-1-enyl)phenoxy]ethanol, reference compound]", "values": [{"measurement": "Uterine size", "value": "0.411 ± 0.042", "unit": "g"}]}]}
